Literature values as cited in US9052308B2 (The General Hospital Corporation, priority 2011, dated 2015).

Settings: circulation

## vitamin D
  fraction of circulating vitamin bound to albumin: 10-15%
  fraction of circulating vitamin bound to vitamin D binding protein: 85-90%
